EC50 data for 1 molecule are collected here from patent publication US8148410B2, “Thiophene derivatives as agonists of S1P1/EDG1” (Actelion Pharmaceuticals Ltd., priority 2007, dated 2012).

By UniProt entry, the sequences of proteins in these tests, tags left out.
UniProt P21453, whole entry: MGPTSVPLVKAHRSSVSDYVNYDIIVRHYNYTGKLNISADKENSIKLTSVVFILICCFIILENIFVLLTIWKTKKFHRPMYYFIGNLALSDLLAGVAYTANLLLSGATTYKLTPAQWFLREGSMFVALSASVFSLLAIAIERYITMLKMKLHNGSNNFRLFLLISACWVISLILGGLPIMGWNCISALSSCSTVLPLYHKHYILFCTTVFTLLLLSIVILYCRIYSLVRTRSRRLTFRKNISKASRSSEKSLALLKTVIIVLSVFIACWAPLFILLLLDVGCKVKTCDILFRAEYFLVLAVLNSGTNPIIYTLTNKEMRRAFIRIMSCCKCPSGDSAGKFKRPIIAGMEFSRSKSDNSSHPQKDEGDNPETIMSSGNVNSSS

This experiment addresses recombinant human S1P1 receptor (Homo sapiens, UniProt P21453). Put plainly: GTPγS assay to determine EC50 values. The class given is biochemical. The conditions noted are these: agonist concentration inducing 50% of maximal specific 35S-GTPγS binding; membranes of CHO cells expressing recombinant human S1P1. On the procedure: GTPγS Assay to Determine EC50 Values
GTPγS binding assays are performed in 96 well microtiter plates (Nunc, 442587) in a final volume of 200 μl, using membrane preparations of CHO cells expressing recombinant human S1P1 receptor. Assay conditions are 20 mM Hepes (Fluka, 54461), 100 mM NaCl (Fluka, 71378), 5 mM MgCl2 (Fluka, 63064), 0.1% BSA (Calbiochem, 126609), 1 μM GDP (Sigma, G-7127), 2.5% DMSO (Fluka, 41644), 50 pM ^35S-GTPγS (Amersham Biosciences, SJ1320). The pH is 7.4. Test compounds are dissolved and diluted in 100% DMSO and pre-incubated at room temperature for 30 min in 150 μl of the above assay buffer, in the absence of ^35S-GTPγS. After addition of 50 μl of ^35S-GTPγS, the assay is incubated for 1 h at rt. The assay is terminated by transfer of the reaction mixture to a Multiscreen plate (Millipore, MAHFC1H60) using a cell harvester from Packard Biosciences, and the plates are washed with ice-cold 10 mM Na2HPO4/NaH2PO4 (70%/30%), dried, sealed at the bottom and, after addition of 25 μl MicroScint20 (Packard Biosciences, order #6013621), sealed on the top. Membrane-bound ^35S-GTPγS is measured with a TopCount from Packard Biosciences.
Specific binding is determined by subtracting non-specific binding from maximal binding. Maximal binding is the amount of cpm bound to the Multiscreen plate in the presence of 10 μM of S1P. […]

In the case of `CCc1cc(-c2noc(-c3cc(C)c(CN(C)C)s3)n2)cc(C)c1OC[C@@H](O)CNC(=O)CO` [Example 51], the EC50 was found to be 1 nM.
